Results on 28 compounds are retold here after US9315491B2 (DEVELOPMENT CENTER FOR BIOTECHNOLOGY, priority 2009, dated 2016).

The IC50 is the midpoint of a concentration-inhibition curve.

One experiment has as its system A549 cells. Put plainly: Antiproliferation assay (MTS), A549. Format: cell-based. The following applies: Homo sapiens; A549, 72 hours of drug treatment.
A further experiment deals with PC-3 cells. Put plainly: Antiproliferation assay (MTS), PC-3. In kind it is cell-based. The following applies: Homo sapiens, PC3, 72 hours of drug treatment. Here is the method:
(1) Antiproliferation Assay
PC-3, U-87 MG, HCC1954 and BT474 cell lines were purchased from the American Type Culture Collection (ATCC, USA). PC-3 was grown in F12K medium (GIBCO) containing 10% FBS. U-87 MG was grown in Eagle's minimum essential medium (MEM, Sigma) supplemented with nonessential amino acids, L-glutamine, sodium pyruvate, and 10% FBS. HCC1954 was grown in RPMI medium (GIBCO) containing 10% FBS. […] All cells were incubated in a humidified atmosphere containing 5% CO2 at 37° C.
Cell lines were inoculated to the wells of a 96-well culture plate with 1000-5000 cells per well. The compounds were prepared and used to treat cells with less than 1% DMSO. After 72 hours of drug treatment, the viability of each cell line was examined by CellTiter 96 Aqueous Non-Radioactive Cell Proliferation Assay (Promega). The living cells were detectable by conversion of MTS into aqueous, soluble formazan. MTS/PMS solution was freshly prepared and 20 μl of MTS/PMS solution was added to each well of the 96-well cultured plate. The assay plate was incubated for 3 hours and the absorbance at 490 nm was measured by EMax ELISA Reader (Molecular Devices). The IC50 values of compounds were determined after carrying out assays at eight serially diluted concentrations of each compound in triplicate, and are the mean of three separate determinations. The results were analyzed using linear regression software (GraphPad Prism 5; GraphPad Software Inc.).

As to `CCOc1c(C(=O)N2CCOCC2)nc(-c2ccc(NC(=O)Nc3ccccc3)cc2)nc1N1CCOCC1` [MTR-0124, 1-{4-[5-Ethoxy-4-(morpholine-4-carbonyl)-6-morpholin-4-yl-pyrimidin-2-yl]-phenyl}-3-phenyl-urea], the IC50 in the experiment with A549 cells was found to be 566 ± 12 nM; in the experiment with PC-3 cells it was 390 ± 9 nM.

`COc1cnc(-c2ccc(NC(=O)Nc3ccccc3)cc2)nc1N1CCOCC1` [MTR-0128, 1-[4-(5-Methoxy-4-morpholin-4-yl-pyrimidin-2-yl)-phenyl]-3-phenyl-urea]: the half-inhibitory concentration (IC50) with A549 cells was 914 ± 29 nM; in the experiment on PC-3 cells it was 499 ± 45 nM.

As to `CCOc1c(C(=O)N2CCCCC2)nc(-c2ccc(NC(=O)Nc3ccccc3)cc2)nc1N1CCOCC1` [MTR-0142, 1-{4-[5-Ethoxy-4-morpholin-4-yl-6-(piperidine-1-carbonyl)-pyrimidin-2-yl]-phenyl}-3-phenyl-urea], the half-maximal inhibitory concentration (IC50) in the experiment on A549 cells came out at 488 ± 56 nM; in the experiment on PC-3 cells, 416 ± 90 nM.

Turning to `CSc1c(Cl)nc(-c2ccc(NC(=O)Nc3cccnc3)cc2)nc1N1CCOCC1` [MTR-0197, 1-[4-(4-Chloro-5-methylsulfanyl-6-morpholin-4-yl-pyrimidin-2-yl)-phenyl]-3-pyridin-3-yl-urea], the figures for the half-maximal inhibitory concentration (IC50) in the experiment with A549 cells and in the experiment on PC-3 cells were 115 ± 2 nM and 18 ± 1 nM, respectively.

Turning to `CCOC(=O)c1nc(-c2ccc(NC(=O)Nc3cccnc3)cc2)nc(N2CCOCC2)c1OCC` [MTR-0205, 5-Ethoxy-6-morpholin-4-yl-2-[4-(3-pyridin-3-yl-ureido)-phenyl]-pyrimidine-4-carboxylic acid ethyl ester], the IC50 is 673 ± 19 nM in the experiment with A549 cells and 130 ± 5 nM in the experiment on PC-3 cells.

In the case of `CCOC(=O)c1nc(-c2ccc(NC(=O)Nc3ccc(N4CCOCC4)c(F)c3)cc2)nc(N2CCOCC2)c1OCC` [MTR-0221, 5-Ethoxy-2-{4-[3-(3-fluoro-4-morpholin-4-yl-phenyl)-ureido]-phenyl}-6-morpholin-4-yl-pyrimidine-4-carboxylic acid ethyl ester], the IC50 in the experiment on A549 cells stood at 710 ± 76 nM; in the experiment with PC-3 cells it was 327 ± 43 nM.

For the compound `CCOC(=O)c1nc(-c2ccc(NC(=O)Nc3ccc(N4CCOCC4=O)cc3)cc2)nc(N2CCOCC2)c1OCC` [MTR-0222, 5-Ethoxy-6-morpholin-4-yl-2-(4-{3-[4-(3-oxo-morpholin-4-yl)-phenyl]-ureido}-phenyl)-pyrimidine-4-carboxylic acid ethyl ester], the IC50 stood at 88 ± 17 nM in the experiment with A549 cells and 30 ± 7 nM in the experiment with PC-3 cells.

`CSc1cnc(-c2ccc(NC(=O)Nc3cccnc3)cc2)nc1N1CCOCC1` [MTR-0225, 1-[4-(5-Methylsulfanyl-4-morpholin-4-yl-pyrimidin-2-yl)-phenyl]-3-pyridin-3-yl-urea]: the figures for the IC50 in the experiment on A549 cells and with PC-3 cells were 1540 ± 113 nM and 333 ± 24 nM, respectively.

As for `CSc1cnc(-c2ccc(NC(=O)Nc3ccc(N4CCOCC4=O)cc3)cc2)nc1N1CCOCC1` [MTR-0227, 1-[4-(5-Methylsulfanyl-4-morpholin-4-yl-pyrimidin-2-yl)-phenyl]-3-[4-(3-oxo-morpholin-4-yl)-phenyl]-urea], the figures for the IC50 in the experiment on A549 cells and in the experiment with PC-3 cells were 223 ± 20 nM and 49 ± 3 nM, respectively.

On to `COc1cnc(-c2ccc(NC(=O)Nc3cccnc3)cc2)nc1N1CCOCC1` [MTR-0228, 1-[4-(5-Methoxy-4-morpholin-4-yl-pyrimidin-2-yl)-phenyl]-3-pyridin-3-yl-urea], for which the IC50 with A549 cells turned out to be 1030 ± 114 nM; with PC-3 cells, 193 ± 8 nM.

`COc1cnc(-c2ccc(NC(=O)Nc3ccc(N4CCOCC4=O)cc3)cc2)nc1N1CCOCC1` [MTR-0241, 1-[4-(5-Methoxy-4-morpholin-4-yl-pyrimidin-2-yl)-phenyl]-3-[4-(3-oxo-morpholin-4-yl)-phenyl]-urea]: the half-inhibitory concentration (IC50) in the experiment with A549 cells was 129 ± 5 nM; with PC-3 cells it was 61 ± 4 nM.

In the case of `COc1cnc(-c2ccc(NC(=O)Nc3ccc(N4CCOCC4)c(F)c3)cc2)nc1N1CCOCC1` [MTR-0242, 1-(3-Fluoro-4-morpholin-4-yl-phenyl)-3-[4-(5-methoxy-4-morpholin-4-yl-pyrimidin-2-yl)-phenyl]-urea], the IC50 in the experiment on A549 cells was 748 ± 140 nM; with PC-3 cells, 286 ± 1 nM.

Consider `CCOC(=O)c1nc(-c2ccc(NC(=O)Nc3ccc(C(N)=O)cc3)cc2)nc(N2CCOCC2)c1OCC` [MTR-0244, 2-{4-[3-(4-Carbamoyl-phenyl)-ureido]-phenyl}-5-ethoxy-6-morpholin-4-yl-pyrimidine-4-carboxylic acid ethyl ester], for which the IC50 turned out to be 891 ± 64 nM in the experiment with A549 cells and 70 ± 9 nM in the experiment on PC-3 cells.

As to `CSc1cnc(-c2ccc(NC(=O)Nc3ccc(N4CCOCC4)cc3)cc2)nc1N1CCOCC1` [MTR-0248, 1-[4-(5-Methylsulfanyl-4-morpholin-4-yl-pyrimidin-2-yl)-phenyl]-3-(4-morpholin-4-yl-phenyl)-urea], the IC50 in the experiment with A549 cells is 145 ± 5 nM; in the experiment with PC-3 cells it was 178 ± 27 nM.

Regarding `CCOC(=O)c1nc(-c2ccc(NC(=O)Nc3cccc(NC(C)=O)c3)cc2)nc(N2CCOCC2)c1OCC` [MTR-0250, 2-{4-[3-(3-Acetylamino-phenyl)-ureido]-phenyl}-5-ethoxy-6-morpholin-4-yl-pyrimidine-4-carboxylic acid ethyl ester], the IC50 in the experiment with A549 cells was 834 ± 37 nM; in the experiment with PC-3 cells it was 305 ± 24 nM.

For the compound `CCOC(=O)c1nc(-c2ccc(NC(=O)Nc3cccc(C(N)=O)c3)cc2)nc(N2CCOCC2)c1OCC` [MTR-0251, 2-{4-[3-(3-Carbamoyl-phenyl)-ureido]-phenyl}-5-ethoxy-6-morpholin-4-yl-pyrimidine-4-carboxylic acid ethyl ester], the IC50 amounted to 2060 ± 75 nM with A549 cells and 456 ± 23 nM in the experiment on PC-3 cells.

Take `CCOc1c(C(=O)N2CCOCC2)nc(-c2ccc(NC(=O)Nc3cccnc3)cc2)nc1N1CCOCC1` [MTR-0253, 1-{4-[5-Ethoxy-4-(morpholine-4-carbonyl)-6-morpholin-4-yl-pyrimidin-2-yl]-phenyl}-3-pyridin-3-yl-urea]: the values for the IC50 in the experiment on A549 cells and in the experiment on PC-3 cells were 2480 ± 367 nM and 268 ± 44 nM, respectively.

Regarding `CSc1c(Cl)nc(-c2ccc(NC(=O)Nc3ccc(C(N)=O)cc3)cc2)nc1N1CCOCC1` [MTR-0257, 4-{3-[4-(4-Chloro-5-methylsulfanyl-6-morpholin-4-yl-pyrimidin-2-yl)-phenyl]-ureido}-benzamide], the values for the IC50 in the experiment on A549 cells and in the experiment with PC-3 cells were 501 ± 23 nM and 119 ± 14 nM, respectively.

For `COc1cnc(-c2ccc(NC(=O)Nc3ccc(N4CCOCC4)cc3)cc2)nc1N1CCOCC1` [MTR-0261, 1-[4-(5-Methoxy-4-morpholin-4-yl-pyrimidin-2-yl)-phenyl]-3-(4-morpholin-4-yl-phenyl)-urea], the values for the IC50 in the experiment on A549 cells and in the experiment on PC-3 cells were 512 ± 25 nM and 111 ± 2 nM, respectively.

Consider `COc1cnc(-c2ccc(NC(=O)Nc3ccc(N4CCSCC4)cc3)cc2)nc1N1CCOCC1` [MTR-0262, 1-[4-(5-Methoxy-4-morpholin-4-yl-pyrimidin-2-yl)-phenyl]-3-(4-thiomorpholin-4-yl-phenyl)-urea], for which the values for the IC50 in the experiment with A549 cells and in the experiment with PC-3 cells were 561 ± 49 nM and 130 ± 4 nM, respectively.

Regarding `CSc1cnc(-c2ccc(NC(=O)Nc3ccc(C(N)=O)cc3)cc2)nc1N1CCOCC1` [MTR-0267, 4-{3-[4-(5-Methylsulfanyl-4-morpholin-4-yl-pyrimidin-2-yl)-phenyl]-ureido}-benzamide], the IC50 with A549 cells was determined as 3490 ± 156 nM; in the experiment with PC-3 cells it was 207 ± 7 nM.

Take `CSc1c(Cl)nc(-c2ccc(NC(=O)Nc3ccc(C(=O)N4CCN(C)CC4)cc3)cc2)nc1N1CCOCC1` [MTR-0271, 1-[4-(4-Chloro-5-methylsulfanyl-6-morpholin-4-yl-pyrimidin-2-yl)-phenyl]-3-[4-(4-methyl-piperazine-1-carbonyl)-phenyl]-urea]: the IC50 came to 155 ± 1 nM with A549 cells and 97 ± 4 nM in the experiment on PC-3 cells.

For the compound `CCOC(=O)c1nc(-c2ccc(NC(=O)Nc3ccc(S(N)(=O)=O)cc3)cc2)nc(N2CCOCC2)c1OCC` [MTR-0273, 5-Ethoxy-6-morpholin-4-yl-2-{4-[3-(4-sulfamoyl-phenyl)-ureido]-phenyl}-pyrimidine-4-carboxylic acid ethyl ester], the values for the IC50 in the experiment with A549 cells and with PC-3 cells were 660 ± 40 nM and 162 ± 6 nM, respectively.

Consider `CCOC(=O)c1nc(-c2ccc(NC(=O)Nc3ccc(C(=O)N4CCOCC4)cc3)cc2)nc(N2CCOCC2)c1OCC` [MTR-0278, 5-Ethoxy-2-(4-{3-[4-(morpholine-4-carbonyl)-phenyl]-ureido}-phenyl)-6-morpholin-4-yl-pyrimidine-4-carboxylic acid ethyl ester], for which the IC50 with PC-3 cells amounted to 39 nM.

`CSc1c(Cl)nc(-c2ccc(NC(=O)Nc3ccc4oc(=O)[nH]c4c3)cc2)nc1N1CCOCC1` [MTR-0372, 1-[4-(4-Chloro-5-methylsulfanyl-6-morpholin-4-yl-pyrimidin-2-yl)-phenyl]-3-(2-oxo-2,3-dihydro-benzooxazol-5-yl)-urea] had an IC50 in the experiment with A549 cells of 332 ± 20 nM.

The compound `CCOc1cnc(-c2ccc(NC(=O)Nc3ccc(NS(C)(=O)=O)cc3)cc2)nc1N1CCOCC1` [MTR-0394, N-(4-{3-[4-(5-Ethoxy-4-morpholin-4-yl-pyrimidin-2-yl)-phenyl]-ureido}-phenyl)-methanesulfonamide] came in with an IC50 in the experiment on A549 cells of 431 ± 10 nM.

The compound `COc1cnc(-c2ccc(NC(=O)Nc3ccc(S(=O)(=O)N4CCOCC4)cc3)cc2)nc1N1CCOCC1` [MTR-0471, 1-[4-(5-Methoxy-4-morpholin-4-yl-pyrimidin-2-yl)-phenyl]-3-[4-(morpholine-4-sulfonyl)-phenyl]-urea] showed a concentration for half-maximal inhibition (IC50) in the experiment with PC-3 cells of 34 ± 2 nM.

As for `COc1cnc(-c2ccc(NC(=O)Nc3ccncc3)cc2)nc1N1CCOCC1` [MTR-0472, 1-[4-(5-Methoxy-4-morpholin-4-yl-pyrimidin-2-yl)-phenyl]-3-pyridin-4-yl-urea], in the experiment with PC-3 cells, the midpoint of inhibition, the IC50, lay at 226 ± 19 nM.
